The values that follow are results of earlier work, collected in patent publication US9687529B2, “Method of controlling coagulation” (Duke University, priority 2011, dated 2017).

The target of the data set is thrombin (Homo sapiens, UniProt P00734). Particulars: cited from earlier work.

The Kd is the free concentration of one partner at which half of the binding sites on the other are occupied at equilibrium, for simple one-to-one binding. `CC1CNc2c(cccc2S(=O)(=O)N[C@@H](CCCNC(=N)N)C(=O)N2CC[C@@H](C)C[C@@H]2C(=O)O)C1` (stereo partly shown) [argatroban]: the Kd was around 40 nM.
